Active and inactive are the calls of the source. The rule behind the calls is not given here.

The chains behind the UniProt entries cited, without tags or fusion partners.
UniProt P10632, whole entry: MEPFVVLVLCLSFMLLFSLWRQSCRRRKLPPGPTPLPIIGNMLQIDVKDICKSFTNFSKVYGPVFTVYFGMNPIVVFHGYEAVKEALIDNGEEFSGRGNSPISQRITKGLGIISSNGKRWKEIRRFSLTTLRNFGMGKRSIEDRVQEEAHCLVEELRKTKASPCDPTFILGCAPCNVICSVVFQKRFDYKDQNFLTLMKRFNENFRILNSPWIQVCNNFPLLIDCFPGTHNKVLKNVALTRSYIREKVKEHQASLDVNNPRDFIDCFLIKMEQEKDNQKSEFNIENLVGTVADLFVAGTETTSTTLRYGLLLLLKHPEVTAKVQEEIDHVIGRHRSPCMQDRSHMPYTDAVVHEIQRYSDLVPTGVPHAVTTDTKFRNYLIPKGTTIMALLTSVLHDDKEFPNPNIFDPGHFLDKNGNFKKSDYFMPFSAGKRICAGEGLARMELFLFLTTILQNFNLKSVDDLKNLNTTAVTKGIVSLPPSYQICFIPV

In data set [1] the target is Branched-chain alpha-ketoacid dehydrogenase kinase (Mus musculus) (UniProt O55028). To be noted: C57BL/6J, dose 10-30 mg/kg, route po, time 10.0 day.
Data set [2] shares this target. The note with it: C57BL6/J, dose 30-90 mg/kg, route po, time 50.0 day.
The target is the same in data set [3]. The note with it: C57BL/6J, dose 10-30 mg/kg, route po, time 10.0 day. The source holds these as a separate data set.
For data set [4] the target is unchanged. The note with it: C57BL/6J, dose 10-30 mg/kg, route po, time 10.0 day. The source holds these as a separate data set.
For data set [5] the target is unchanged. To be noted: C57BL6/J, dose 30-90 mg/kg, route po, time 8.0 weeks.
For data set [6] the target is unchanged. To be noted: C57BL6/J, dose 30-90 mg/kg, route po, time 8.0 weeks. The source holds these as a separate data set.
Data set [7] shares this target. The note with it: C57BL6/J, dose 30-90 mg/kg, route po, time 8.0 weeks. This is another data set of the same source.
Data set [8] shares this target. To be noted: C57BL6/J, dose 30-90 mg/kg, route po, time 8.0 weeks. The source holds these as a separate data set.
In data set [9] the target is T1, Cytochrome P450 2C8 (Homo sapiens, UniProt P10632). Description: Time-dependent inhibition of human CYP2C8-mediated amodiaquine N-dealkylation in human liver microsomes using amodiaquine as substrate assessed as second order rate constant measured after 1 to 40 min in presence of NADPH. The format is ADME, Microsome. To be noted: time 1-40 min. (Liver microsomes are a subcellular fraction often used to study metabolism.)

The target in data set [10] is Branched-chain alpha-ketoacid dehydrogenase kinase (Mus musculus) (UniProt O55028). To be noted: C57BL/6J, dose 10-30 mg/kg, route po, time 10.0 day. The source holds these as a separate data set.
Data set [11] shares this target. To be noted: C57BL6/J, dose 30-90 mg/kg, route po, time 8.0 weeks. This is another data set of the same source.
Data set [12] addresses T1, Cytochrome P450 2C8. Description: Inhibition of human CYP2C8-mediated amodiaquine N-dealkylation in human liver microsomes using amodiaquine as substrate assessed as second order rate constant at 3 to 100 uM in presence of NADPH. The note with it: dose 3-100 µM. The data set is classed as ADME, Microsome.
The target of data set [13] is Branched-chain alpha-ketoacid dehydrogenase kinase (Mus musculus) (UniProt O55028). To be noted: C57BL/6J, dose 10-30 mg/kg, route po, time 10.0 day. This is another data set of the same source.

On to `COc1c(F)c(F)cc(-c2c(C(=O)O)sc3cc(F)ccc23)c1F`, for which the inhibition result in data set [1] is “Dose-dependent-effect”; in data set [2], “Active; Qualitatively Larger Effect Observed Compare To Day #”; in [3], “Dose-dependent-effect”; in [4], “Dose-dependent-effect”; in [6], “Dose-dependent-effect”; in data set [7] it was “Dose-dependent-effect”. Also, the inhibition result in data set [8], in data set [10] and in data set [13] was “Dose-dependent-effect” in each case. The inhibition entry in data set [5] and in data set [11] was “Active” each time. Moreover, the figures for the K in data set [9] and in [12] were 7.22 M⁻¹ s⁻¹ and 0.433 µmol/min, respectively.
